Experimental data: the supplement of paper PMC11403291

Protein sequences, listed by entry. Tags and fused reporters are not part of them. Lines headed by an entry give the natural chain unless they say otherwise; changes in a name come on top.
UniProt Q9P2K8: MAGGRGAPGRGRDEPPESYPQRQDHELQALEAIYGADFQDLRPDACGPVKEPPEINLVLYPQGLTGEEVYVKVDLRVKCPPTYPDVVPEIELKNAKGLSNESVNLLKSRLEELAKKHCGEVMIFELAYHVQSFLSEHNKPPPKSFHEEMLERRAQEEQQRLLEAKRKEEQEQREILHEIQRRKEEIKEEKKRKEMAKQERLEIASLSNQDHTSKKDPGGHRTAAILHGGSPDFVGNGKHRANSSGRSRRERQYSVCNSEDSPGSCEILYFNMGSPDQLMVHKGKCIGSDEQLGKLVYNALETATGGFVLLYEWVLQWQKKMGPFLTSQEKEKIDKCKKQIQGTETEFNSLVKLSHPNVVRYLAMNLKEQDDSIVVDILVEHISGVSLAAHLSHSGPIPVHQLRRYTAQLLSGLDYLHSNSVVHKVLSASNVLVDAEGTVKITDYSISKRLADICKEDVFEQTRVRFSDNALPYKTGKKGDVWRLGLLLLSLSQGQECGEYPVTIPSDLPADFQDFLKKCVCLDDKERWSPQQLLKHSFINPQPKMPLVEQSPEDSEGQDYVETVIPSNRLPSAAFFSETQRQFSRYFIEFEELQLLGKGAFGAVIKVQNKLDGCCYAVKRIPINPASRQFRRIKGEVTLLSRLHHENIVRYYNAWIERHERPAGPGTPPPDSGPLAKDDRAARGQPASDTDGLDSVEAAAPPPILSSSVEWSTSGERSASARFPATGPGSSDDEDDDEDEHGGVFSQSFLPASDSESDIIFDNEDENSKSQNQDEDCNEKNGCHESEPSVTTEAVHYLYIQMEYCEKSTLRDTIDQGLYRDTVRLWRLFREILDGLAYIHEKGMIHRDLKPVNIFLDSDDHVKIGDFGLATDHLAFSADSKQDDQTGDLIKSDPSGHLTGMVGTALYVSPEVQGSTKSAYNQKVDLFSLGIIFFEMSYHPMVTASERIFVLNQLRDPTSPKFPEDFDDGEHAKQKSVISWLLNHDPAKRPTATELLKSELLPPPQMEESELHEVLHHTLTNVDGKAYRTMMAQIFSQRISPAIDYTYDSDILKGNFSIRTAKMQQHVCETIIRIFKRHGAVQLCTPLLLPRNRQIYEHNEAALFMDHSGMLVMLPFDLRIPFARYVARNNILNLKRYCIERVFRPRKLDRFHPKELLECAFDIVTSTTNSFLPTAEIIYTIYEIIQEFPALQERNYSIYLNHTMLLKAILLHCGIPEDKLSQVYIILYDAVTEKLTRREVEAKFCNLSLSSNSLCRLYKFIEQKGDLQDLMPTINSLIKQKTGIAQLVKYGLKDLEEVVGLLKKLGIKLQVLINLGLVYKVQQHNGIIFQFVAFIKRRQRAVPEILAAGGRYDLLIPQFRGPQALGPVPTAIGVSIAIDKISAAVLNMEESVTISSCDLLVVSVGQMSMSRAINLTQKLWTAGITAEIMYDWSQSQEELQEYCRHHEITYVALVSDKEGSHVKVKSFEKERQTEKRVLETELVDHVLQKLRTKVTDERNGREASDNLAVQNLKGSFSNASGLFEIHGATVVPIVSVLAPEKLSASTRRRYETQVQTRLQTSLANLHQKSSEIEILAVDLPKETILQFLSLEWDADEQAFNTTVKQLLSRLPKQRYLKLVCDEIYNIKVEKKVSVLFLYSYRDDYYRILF
UniProt Q02750, whole entry: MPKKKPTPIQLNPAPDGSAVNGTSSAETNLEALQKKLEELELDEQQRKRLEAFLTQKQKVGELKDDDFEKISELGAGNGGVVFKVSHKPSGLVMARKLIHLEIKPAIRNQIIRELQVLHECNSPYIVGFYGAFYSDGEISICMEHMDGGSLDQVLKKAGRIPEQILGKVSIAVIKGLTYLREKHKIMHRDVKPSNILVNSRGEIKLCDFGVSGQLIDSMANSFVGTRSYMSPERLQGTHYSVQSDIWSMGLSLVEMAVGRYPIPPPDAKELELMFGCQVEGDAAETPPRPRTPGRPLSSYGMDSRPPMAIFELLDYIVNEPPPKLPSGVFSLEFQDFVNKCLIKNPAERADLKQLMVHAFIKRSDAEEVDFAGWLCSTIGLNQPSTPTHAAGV

Columns and labels:
Assay in all cases: apparent dissociation constant pKd app (kinobead competition) (-log10(M)); higher = stronger binding
EIF2AK4 = EIF2AK4 (UniProt Q9P2K8)
EPHA1 = molecular target: T1, EPHA1 (UniProt P21709)
T1 sequence (whole entry): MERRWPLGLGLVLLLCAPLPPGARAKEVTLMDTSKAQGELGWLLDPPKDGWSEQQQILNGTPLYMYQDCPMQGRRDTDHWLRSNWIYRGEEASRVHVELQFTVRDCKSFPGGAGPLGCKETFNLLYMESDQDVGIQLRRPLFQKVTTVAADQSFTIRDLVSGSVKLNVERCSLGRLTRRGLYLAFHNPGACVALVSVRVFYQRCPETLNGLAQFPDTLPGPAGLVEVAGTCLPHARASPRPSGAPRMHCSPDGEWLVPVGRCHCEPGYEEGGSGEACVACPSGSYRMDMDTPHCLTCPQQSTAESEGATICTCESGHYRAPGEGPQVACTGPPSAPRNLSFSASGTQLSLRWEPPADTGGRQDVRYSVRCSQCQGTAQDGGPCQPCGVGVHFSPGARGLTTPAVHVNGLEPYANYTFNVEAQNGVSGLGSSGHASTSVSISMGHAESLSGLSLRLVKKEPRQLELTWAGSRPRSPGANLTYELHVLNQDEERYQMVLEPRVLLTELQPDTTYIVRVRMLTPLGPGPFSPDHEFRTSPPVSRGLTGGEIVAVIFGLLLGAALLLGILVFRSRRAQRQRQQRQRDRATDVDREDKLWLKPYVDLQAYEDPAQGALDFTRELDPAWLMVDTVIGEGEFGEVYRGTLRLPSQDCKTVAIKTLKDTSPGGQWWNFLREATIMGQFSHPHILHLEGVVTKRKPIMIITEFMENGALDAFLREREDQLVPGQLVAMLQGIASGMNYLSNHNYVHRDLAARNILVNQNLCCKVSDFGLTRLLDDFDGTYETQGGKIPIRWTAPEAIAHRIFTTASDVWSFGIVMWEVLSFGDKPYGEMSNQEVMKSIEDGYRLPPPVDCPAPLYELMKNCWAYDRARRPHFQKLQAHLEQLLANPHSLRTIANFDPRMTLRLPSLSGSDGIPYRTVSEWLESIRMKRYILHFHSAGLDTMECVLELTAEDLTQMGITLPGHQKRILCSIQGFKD

EPHA3 = molecular target: T2, EPHA3 (UniProt P29320)
T2 sequence (whole entry): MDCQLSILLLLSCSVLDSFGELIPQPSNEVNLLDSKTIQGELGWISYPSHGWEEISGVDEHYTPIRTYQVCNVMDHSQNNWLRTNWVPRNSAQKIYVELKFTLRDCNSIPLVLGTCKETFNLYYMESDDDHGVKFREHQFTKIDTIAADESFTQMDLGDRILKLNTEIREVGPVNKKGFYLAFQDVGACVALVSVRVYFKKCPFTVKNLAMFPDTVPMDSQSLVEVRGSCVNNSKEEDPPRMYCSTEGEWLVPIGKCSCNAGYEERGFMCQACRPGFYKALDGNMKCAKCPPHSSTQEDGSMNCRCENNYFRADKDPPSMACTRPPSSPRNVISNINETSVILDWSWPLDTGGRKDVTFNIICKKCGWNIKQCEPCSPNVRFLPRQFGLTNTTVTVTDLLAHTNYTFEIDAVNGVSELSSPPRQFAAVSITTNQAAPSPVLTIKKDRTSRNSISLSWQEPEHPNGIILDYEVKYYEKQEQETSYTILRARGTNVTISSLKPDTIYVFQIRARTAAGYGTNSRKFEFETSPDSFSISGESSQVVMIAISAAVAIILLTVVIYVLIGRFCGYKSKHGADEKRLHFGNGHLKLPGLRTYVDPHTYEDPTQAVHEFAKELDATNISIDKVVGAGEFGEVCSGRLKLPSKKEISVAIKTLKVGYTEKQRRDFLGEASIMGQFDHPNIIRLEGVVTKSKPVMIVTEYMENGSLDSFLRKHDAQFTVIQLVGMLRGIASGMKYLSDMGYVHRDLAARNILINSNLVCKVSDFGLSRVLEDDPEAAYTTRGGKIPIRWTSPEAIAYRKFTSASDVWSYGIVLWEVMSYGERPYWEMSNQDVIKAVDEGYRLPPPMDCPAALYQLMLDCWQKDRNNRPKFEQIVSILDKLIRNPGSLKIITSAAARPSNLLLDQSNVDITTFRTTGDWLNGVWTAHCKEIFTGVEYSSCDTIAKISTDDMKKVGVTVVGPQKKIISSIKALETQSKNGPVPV

MAP2K1 = MAP2K1 (UniProt Q02750)
PDPK1 = molecular target: T3, PDPK1 (UniProt O15530)
T3 sequence (whole entry): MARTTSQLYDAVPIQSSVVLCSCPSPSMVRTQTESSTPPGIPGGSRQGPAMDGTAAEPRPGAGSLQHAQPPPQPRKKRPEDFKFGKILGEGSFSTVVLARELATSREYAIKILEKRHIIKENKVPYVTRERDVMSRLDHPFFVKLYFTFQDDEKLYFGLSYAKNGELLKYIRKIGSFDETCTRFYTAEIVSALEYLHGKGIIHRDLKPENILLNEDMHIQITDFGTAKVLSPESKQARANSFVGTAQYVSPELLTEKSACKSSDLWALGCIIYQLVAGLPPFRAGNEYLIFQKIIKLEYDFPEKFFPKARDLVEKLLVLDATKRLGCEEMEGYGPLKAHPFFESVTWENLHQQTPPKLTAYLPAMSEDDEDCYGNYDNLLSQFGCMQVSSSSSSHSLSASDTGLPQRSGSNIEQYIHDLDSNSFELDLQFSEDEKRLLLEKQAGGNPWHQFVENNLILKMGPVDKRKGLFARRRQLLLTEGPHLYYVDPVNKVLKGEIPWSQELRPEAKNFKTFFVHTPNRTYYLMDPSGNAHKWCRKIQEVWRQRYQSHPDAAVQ

Row | apparent dissociation constant pKd app (-log10) (EIF2AK4) | apparent dissociation constant pKd app (-log10) (EPHA1) | apparent dissociation constant pKd app (-log10) (EPHA3) | apparent dissociation constant pKd app (-log10) (MAP2K1) | apparent dissociation constant pKd app (-log10) (PDPK1) | SMILES
1 | < 4.5 | < 4.7 | < 4.5 | < 4.5 | < 4.5 | O=C(c1cc(Cc2n[nH]c(=O)c3ccccc23)ccc1F)N1CCN(C(=O)C2CC2)CC1 [Olaparib]
2 | < 4.5 | < 4.7 | < 4.5 | < 4.5 | < 4.5 | NC(=O)c1cccc2cn(-c3ccc([C@@H]4CCCNC4)cc3)nc12 [Niraparib]
3 | < 4.5 | < 4.7 | < 4.5 | < 4.5 | < 4.5 | Cn1ncnc1[C@H]1c2n[nH]c(=O)c3cc(F)cc(c23)N[C@@H]1c1ccc(F)cc1 [Talazoparib]
